Values of other authors in PMC3484071.

Molecular target: smooth muscle myosin light chain kinase peptide smMLCK peptide (UniProt Q15746)

Kd: 1 nM
Substance: Calmodulin (from UniProt P0DP23)
